Here are results for 14 molecules from US12297197B2, “Pyrazolopyridine compound as RET inhibitor and application thereof” (GUANGZHOU BAIYUNSHAN PHARMACEUTICAL HOLDINGS CO., LTD. …, priority 2019, dated 2025).

Protein sequences, listed by entry. Tags and fused reporters are not part of them. Lines headed by an entry give the natural chain unless they say otherwise; changes in a name come on top. Residues count along the entry.
UniProt P07949, 29-1114 limits assumed: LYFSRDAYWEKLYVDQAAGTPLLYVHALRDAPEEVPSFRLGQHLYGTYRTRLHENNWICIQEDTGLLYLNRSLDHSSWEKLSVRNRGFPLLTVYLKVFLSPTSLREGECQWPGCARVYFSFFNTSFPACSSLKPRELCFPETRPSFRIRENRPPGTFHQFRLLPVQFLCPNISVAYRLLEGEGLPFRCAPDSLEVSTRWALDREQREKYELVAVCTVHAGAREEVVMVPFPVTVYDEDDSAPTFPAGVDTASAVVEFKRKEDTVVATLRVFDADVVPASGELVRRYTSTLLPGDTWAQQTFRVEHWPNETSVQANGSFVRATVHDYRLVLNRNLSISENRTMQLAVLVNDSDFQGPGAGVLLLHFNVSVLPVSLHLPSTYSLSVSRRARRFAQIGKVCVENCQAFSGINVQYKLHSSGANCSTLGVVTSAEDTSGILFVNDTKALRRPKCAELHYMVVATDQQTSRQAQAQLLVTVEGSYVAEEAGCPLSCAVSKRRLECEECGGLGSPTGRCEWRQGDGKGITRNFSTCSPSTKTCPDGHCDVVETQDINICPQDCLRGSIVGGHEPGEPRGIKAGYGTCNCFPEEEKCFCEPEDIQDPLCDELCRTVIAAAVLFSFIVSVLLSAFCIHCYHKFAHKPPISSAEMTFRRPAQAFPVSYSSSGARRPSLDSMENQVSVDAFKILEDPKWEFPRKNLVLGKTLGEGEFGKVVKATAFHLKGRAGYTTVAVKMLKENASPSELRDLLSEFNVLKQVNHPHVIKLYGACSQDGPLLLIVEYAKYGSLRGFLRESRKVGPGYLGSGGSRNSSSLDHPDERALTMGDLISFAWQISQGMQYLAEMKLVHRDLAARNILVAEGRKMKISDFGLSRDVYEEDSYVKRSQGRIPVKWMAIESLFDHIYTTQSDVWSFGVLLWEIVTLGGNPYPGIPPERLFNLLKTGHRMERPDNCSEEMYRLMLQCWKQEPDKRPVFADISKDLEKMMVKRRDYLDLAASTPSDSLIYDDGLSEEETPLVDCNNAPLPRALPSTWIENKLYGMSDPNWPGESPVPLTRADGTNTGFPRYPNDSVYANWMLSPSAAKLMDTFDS
UniProt P07949, 29-1114 V804M limits assumed: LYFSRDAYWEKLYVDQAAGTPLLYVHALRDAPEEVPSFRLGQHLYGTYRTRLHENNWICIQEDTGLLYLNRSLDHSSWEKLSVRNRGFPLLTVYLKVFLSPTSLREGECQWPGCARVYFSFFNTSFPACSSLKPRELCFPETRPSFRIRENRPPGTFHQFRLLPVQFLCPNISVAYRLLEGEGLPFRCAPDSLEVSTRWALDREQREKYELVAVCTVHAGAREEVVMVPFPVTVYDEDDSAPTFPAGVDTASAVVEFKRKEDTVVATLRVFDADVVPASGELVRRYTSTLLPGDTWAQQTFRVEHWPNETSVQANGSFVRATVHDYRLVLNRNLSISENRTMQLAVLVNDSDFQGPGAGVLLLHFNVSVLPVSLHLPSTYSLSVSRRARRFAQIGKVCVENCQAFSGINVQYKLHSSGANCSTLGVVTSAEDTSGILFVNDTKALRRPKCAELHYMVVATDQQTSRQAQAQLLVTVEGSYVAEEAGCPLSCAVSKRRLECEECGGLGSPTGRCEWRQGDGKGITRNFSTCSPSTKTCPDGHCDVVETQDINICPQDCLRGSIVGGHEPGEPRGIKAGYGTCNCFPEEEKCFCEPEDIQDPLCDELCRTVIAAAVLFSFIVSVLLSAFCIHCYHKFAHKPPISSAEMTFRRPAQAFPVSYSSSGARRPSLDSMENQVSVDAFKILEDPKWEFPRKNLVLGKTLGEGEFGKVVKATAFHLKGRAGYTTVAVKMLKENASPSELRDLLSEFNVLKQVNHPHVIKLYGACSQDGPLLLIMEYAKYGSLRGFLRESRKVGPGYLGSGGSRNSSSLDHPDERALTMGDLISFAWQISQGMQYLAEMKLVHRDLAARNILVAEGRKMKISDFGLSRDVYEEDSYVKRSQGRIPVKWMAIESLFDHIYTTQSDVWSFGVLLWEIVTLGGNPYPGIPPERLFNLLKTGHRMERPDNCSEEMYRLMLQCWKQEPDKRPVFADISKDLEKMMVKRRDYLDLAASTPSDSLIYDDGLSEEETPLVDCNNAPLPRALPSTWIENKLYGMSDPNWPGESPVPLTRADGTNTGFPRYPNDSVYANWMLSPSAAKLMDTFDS

Assay [1] addresses RET kinase (Homo sapiens, UniProt P07949). The experiment in a line: In-vitro enzyme activity test, RET kinase. The following applies: read-out: RET kinase IC50, ATP 20 μM, 10 concentrations 3 μM to 0.152 nM. On the procedure:
(§1) The enzyme activity was detected by a Z′-LYTE™ kinase test, and inhibitory effects of the compounds onRET and RET (V804M) kinases were evaluated with an ICs value of each compound as an index.
(§2) The compounds used for RET and RET (V804M) kinase tests were diluted 3-fold, in 10 concentration gradients ranging from 3 μM to 0.152 nM; and the content of DMSO in detection reaction was 1%.
(§3) Basic reaction buffer, 20 mM 4-(2-hydroxyethyl)piperazine-1-ethanesulfonic acid (Hepes) buffer (pH 7.5), 10 mM MgCl2. 1 mM 1,2-bis[2-[bis(carboxymethyl)amino]ethoxy]ethane (EGTA), 0.02% polyoxyethylene lauryl ether (Brij35), 0.02 mg/mL bovine serum albumin, 0.1 mM of Na3VO4, 2 mM dithiothreitol (DTT) and 1% DMSO.
(§4) The compounds to be tested were dissolved in a 100% DMSO system to be diluted to 10 mM for further use. The solution was diluted by using Integra Viaflo Assist.
(§5) Test conditions: concentrations of RET kinase, peptide substrate CHKtide and adenosine triphosphate (ATP) were […], 1000 μM and 20 μM, respectively, and concentrations of RET (V804M) kinase, substrate peptide and ATP were […], 1000 μM and 30 μM, respectively.
(§6) Reaction process: compound solutions of different concentrations were added to a kinase/peptide solution prepared according to the test conditions, the obtained solution was incubated at room temperature for 20 minutes, and then 33P-ATP of corresponding concentrations were added, and the obtained solution was incubated at room temperature for 120 minutes. The radioactivity was detected by a filter-binding method.
(§7) The reaction was terminated by adding phosphoric acid (concentration, 0.5%) into a kinase reaction solution, and plate reading was carried out with an Envision instrument.
(§8) Data were converted into phosphorylation rate and inhibition rate, and the parametric curve was fitted by using GraphPad Software to obtain IC50 data of the compounds.

Assay [2] addresses RET (V804M) kinase (Homo sapiens, UniProt P07949, V804M). The experiment in a line: In-vitro enzyme activity test, RET (V804M) kinase. The following applies: read-out: RET V804M IC50, ATP 30 μM, 10 concentrations 3 μM to 0.152 nM. On the procedure: as §1, §2, §3, §4, §5, §6, §7, §8

Like-named read-outs stand apart in the source and are kept apart here.

Take `COc1ccc(CN2C3CC2CN(c2cnc(-c4cc(C5=CCNCC5)cn5ncc(C#N)c45)cn2)C3)cn1`: the values for the IC50 in assay [1] (tested form: TFA) and in assay [2] (tested form: TFA) were 1.24 nM and 6.15 nM, respectively.
Consider `COc1ccc(CN2C3CC2CN(c2ccc(-c4cc(C5=CCCOC5)cn5ncc(C#N)c45)cn2)C3)cn1`, for which the IC50 in assay [1] came to 53.4 nM; in assay [2], 144 nM.
`CCN1CC=C(c2cc(-c3cnc(N4CC5CC(C4)N5Cc4ccc(OC)nc4)cn3)c3c(C#N)cnn3c2)CC1`: the IC50 came out at 0.92 nM in assay [1] (tested form: TFA) and 9.89 nM in assay [2] (tested form: TFA).
Turning to `N#Cc1cnn2cc(C3=CCNC3)cc(-c3ccc(N4CCN(Cc5c(F)cccc5F)CC4)nc3)c12`, the half-inhibitory concentration (IC50) came to 0.56 nM in assay [1] (tested form: HCl) and 5.9 nM in assay [2] (tested form: HCl).
In the case of `N#Cc1cnn2cc(N3CCC(F)(F)C3)cc(-c3ccc(N4CC5CC(C4)N5Cc4ccc(C(F)(F)F)nc4)nc3)c12`, in assay [1] (tested form: TFA), the IC50 was found to be 1.13 nM.
On to `COc1ccc(CN2C3CC2CN(c2ccc(-c4cc(C5=CC(C)NCC5)cn5ncc(C#N)c45)cn2)C3)cn1` (centres unmarked), for which the IC50 in assay [1] is 0.29 nM; in assay [2], 1.83 nM.
Consider `Cn1ccc2cc(CN3C4CC3CN(c3ccc(-c5cc(N6CCC(F)(F)C6)cn6ncc(C#N)c56)cn3)C4)cnc21`, for which, in assay [1] (tested form: TFA), the IC50 turned out to be 8 nM.
On the same count and under the same terms, in the case of `N#Cc1cnn2cc(N3CC[C@H](O)C3)cc(-c3ccc(N4CC5CC(C4)N5Cc4cnc5[nH]ccc5c4)nc3)c12` it was 1.97 nM.
For `N#Cc1cnn2cc(N3CC[C@H](O)C3)cc(-c3ccc(N4CC5CC(C4)N5Cc4cnc5[nH]cc(F)c5c4)nc3)c12`, the IC50 in assay [1] (tested form: TFA) was 1.64 nM.
As for `N#Cc1cnn2cc(C3CCNC3)cc(-c3ccc(N4CCN(Cc5c(F)cccc5F)CC4)nc3)c12` (centres unmarked), the IC50 is 146 nM in assay [1] (tested form: HCl) and 2370 nM in assay [2] (tested form: HCl).
Regarding `COc1ccc(CN2C3CC2CN(c2ccc(-c4cc(C5=COCCC5)cn5ncc(C#N)c45)cn2)C3)cn1`, the IC50 in assay [1] was found to be 2 nM.
`N#Cc1cnn2cc(N3CCC(F)(F)C3)cc(-c3ccc(N4CC5CC(C4)N5Cc4cnc5[nH]ccc5c4)nc3)c12`: in assay [1] (tested form: TFA), the IC50 stood at 1.38 nM.
Still for that read-out and setting: in the case of `Cn1ccc2cc(CN3C4CC3CN(c3ccc(-c5cc(C6=CCOCC6)cn6ncc(C#N)c56)cn3)C4)cnc21` it was 3.9 nM.
With `COc1cnc(CN2C3CC2CN(c2cnc(-c4cc(C5=CCOCC5)cn5ncc(C#N)c45)cn2)C3)cn1`, the IC50 in assay [1] (tested form: TFA) amounted to 1.22 nM.

As usually defined, the IC50 is the concentration at which inhibition is half-maximal.
